The structures appear in SMILES notation.

Sequences of proteins named here, by UniProt entry; tags and fusion partners are left off.
UniProt P23977, whole entry: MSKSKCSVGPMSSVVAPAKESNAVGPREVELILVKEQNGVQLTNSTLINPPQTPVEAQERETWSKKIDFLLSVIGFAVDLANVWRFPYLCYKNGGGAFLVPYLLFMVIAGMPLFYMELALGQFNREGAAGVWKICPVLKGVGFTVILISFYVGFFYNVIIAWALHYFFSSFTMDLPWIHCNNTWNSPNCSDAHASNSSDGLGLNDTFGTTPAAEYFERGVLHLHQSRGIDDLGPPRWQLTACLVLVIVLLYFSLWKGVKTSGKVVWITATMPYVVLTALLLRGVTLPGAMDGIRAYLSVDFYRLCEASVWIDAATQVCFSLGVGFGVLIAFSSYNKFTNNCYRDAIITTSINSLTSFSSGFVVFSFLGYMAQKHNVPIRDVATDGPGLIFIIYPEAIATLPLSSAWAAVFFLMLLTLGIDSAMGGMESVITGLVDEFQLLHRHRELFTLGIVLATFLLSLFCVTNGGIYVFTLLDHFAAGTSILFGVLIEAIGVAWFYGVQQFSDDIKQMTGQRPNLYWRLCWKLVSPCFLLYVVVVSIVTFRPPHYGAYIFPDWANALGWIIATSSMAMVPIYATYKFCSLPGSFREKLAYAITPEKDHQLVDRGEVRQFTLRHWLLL
UniProt P31652, whole entry: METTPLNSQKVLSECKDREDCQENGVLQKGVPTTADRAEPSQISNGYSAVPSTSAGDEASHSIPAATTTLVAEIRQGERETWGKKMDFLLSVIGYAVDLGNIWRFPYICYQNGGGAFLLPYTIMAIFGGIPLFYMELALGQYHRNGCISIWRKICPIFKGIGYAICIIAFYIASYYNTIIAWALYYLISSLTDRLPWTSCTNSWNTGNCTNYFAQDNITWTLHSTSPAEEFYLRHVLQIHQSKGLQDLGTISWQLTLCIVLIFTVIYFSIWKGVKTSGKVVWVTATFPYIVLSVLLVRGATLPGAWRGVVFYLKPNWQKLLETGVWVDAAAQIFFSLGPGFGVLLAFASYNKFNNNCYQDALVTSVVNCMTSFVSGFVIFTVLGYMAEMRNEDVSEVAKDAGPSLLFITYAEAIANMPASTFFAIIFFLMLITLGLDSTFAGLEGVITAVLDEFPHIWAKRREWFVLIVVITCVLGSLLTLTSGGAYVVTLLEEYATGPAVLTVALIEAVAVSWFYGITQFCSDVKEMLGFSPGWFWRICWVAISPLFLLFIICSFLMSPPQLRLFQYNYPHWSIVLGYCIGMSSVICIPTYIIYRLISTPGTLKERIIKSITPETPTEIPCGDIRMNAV

In ChEMBL document CHEMBL1130764, “Synthesis of a potent wide-spectrum serotonin-, norepinephrine-, dopamine-reuptake inhibitor (SNDRI) and a species-selective dopamine-reuptake inhibitor based on the gamma-amino alcohol functional group” (Bioorg Med Chem Lett, 1998) one finds Ki data, which are given here for 1 molecule.

Assay [1] deals with Sodium-dependent dopamine transporter (Rattus norvegicus, UniProt P23977). Put plainly: Inhibition of [3H]- DA reuptake into rat striatal synaptosomes. The assay is classed as subcellular, Brain.
The target of assay [2] is Sodium-dependent serotonin transporter (Rattus norvegicus, UniProt P31652). The assay is described as follows: Inhibition of [3H]5-HT reuptake into rat frontal cortex synaptosomes. The assay is classed as subcellular, Brain.

With `Fc1ccc([C@@H]2CCNC[C@H]2COc2ccc3c(c2)OCO3)cc1` [PAROXETINE], the Ki – broadly, the dissociation constant of the complex between target and ligand, obtained from inhibition or displacement – in assay [1] stood at 1700 nM; in assay [2], 0.73 nM.
